{"source": "patent US6770673B1", "about": "“Therapeutic uses of arglabin in combination with other chemotherapy agents” (priority 1997, dated 2004)", "settings": "rat, in vivo"}
{"compound": "CC1=CCC23OC2(C)CCC2C(CN(C)C)C(=O)OC2C13.Cl", "note": "(stereo not shown) [Dimethylaminoarglabin hydrochloride]", "values": [{"measurement": "biological half-life", "value": "about 46.8 hours"}]}
